Earlier results as cited in patent publication US20060029940A1, “Prostate stem cell antigen (PSCA) variants and subsequences thereof” (priority 2003, published 2006).

Conditions: patients treated with Herceptin alone

Herceptin: FDA approved pharmaceutical whose active ingredient is an antibody immunoreactive with HER2
significant cardiotoxicity: very low percentage of patients
